Source: US20220079876A1, “OCULAR IMPLANT CONTAINING A TYROSINE KINASE INHIBITOR” (Ocular Therapeutix, Inc., priority 2020, published 2022)

Key:
[1] = rabbit, 1 month
[2] = mice, uveal tract of the eye (INLYTA support, NDA202324); cited from earlier work
[3] = 600 μg axitinib bolus, scale 0-5, mean (SD)
[4] = intravitreal bolus of 600 μg axitinib suspension

- Chronic Subcorneal Inflammation, histopathology score [1, 3]: 0.28 (0.38)
- Fibrosis Around the Article, histopathology score [1, 3]: 0.00 (0.00)
- Retinal Disruption, histopathology score [1, 3]: 0.10 (0.11)
- Retinal Vacuolization, histopathology score [1, 3]: 0.50 (0.46)
- Retinal, Scleral, or Episcleral Inflammation, histopathology score [1, 3]: 0.03 (0.05)
- Vitreous Chamber Inflammation, histopathology score [1, 3]: 0.23 (0.21)
- IOP, determined weekly ([1]; intravitreal bilateral bolus of 600 μg axitinib suspension in ProVisc): remained within the normal range
- Eyes with minimal retinal disruption with a few macrophages in the photoreceptor layer [1, 4]: 1 of 6
- Eyes with minimal retinal vacuolization [1, 4]: 4 of 6
- Eyes with minimal to mild chronic subcorneal inflammation [1, 4]: 4 of 6
- Gross lesions [1, 4]: No gross lesions
- Mild focal retinal disruptions in proximity to the puncture location [1, 4]: two eyes
SMILES: CNC(=O)c1ccccc1Sc1ccc2c(/C=C/c3ccccn3)n[nH]c2c1 [axitinib, N-methyl-2-[3-((E)-2-pyridin-2-yl-vinyl)-1H-indazol-6-ylsulfanyl]-benzamide]
- Inflammation around the axitinib injection site [1, 4]: Minimal histiocytic and multinucleated giant cell inflammation
- Melanin binding [2]: bind to melanin in the uveal tract of the eye
